Assays:
T lymphocyte = T lymphocyte transformation test (ConA, MTT) on spleen cells of treated mice; assay type: in vivo, BALB/c mice; set-up: key: OD of assay wells divided by OD of control wells; details: IFN-γ and IL-2 groups 3×10^5 IU/kg/day, X ± SD
Procedure: The above substances were all dissolved in 0.5 ml saline and injected intraperitoneal (i.p.) for 15 continuous days, once per day.
The BALB/c mice were randomly divided into the peptide, IFN, IL-2, and saline groups. Ten mice per group. The day after the last test substance administration, the mice were sacrificed by cervical dislocation. The spleen was isolated aseptically and manually dispersed in cold D-Hank's solution using an injection needle. The dispersed cell suspension was further sieved through a 100 gauge 150 μm diameter stainless steel sieve. After centrifugation at 200 g for 10 minutes, the supernatant was discarded. The cell pellet was re-suspended in 10 volume of Tris-NH4Cl buffer and then kept standing still for 10 minutes at room temperature. The suspended cells were collected by centrifugation at 150 g for 10 minutes. The cells were washed 2-4 times with cold D-Hank's solution by re-suspending and collecting by centrifugation with condition as described above. The washed cells were then diluted to the desired cell densities by RPMI-1640 culture medium, containing 10% fetal bovine serum.
Spleen cells of density 1×10^6/ml were placed onto a 96 wells cell culture plate, 100 μl/well, three parallel wells each of the assay sample and control sample per mouse. To the assay wells, 100 μl/well ConA of 100 μg/ml in RPMI-1640 was added, and 100 μl/well plain RPMI-1640 was used for the controls. The cells were incubated for 66 hrs at 37° C., 5% CO2. The cells were then pelleted by centrifugation at 150 g for 10 minutes. The supernatant was collected and stored at −20° C. for cytokines IL-2 and IFN determination.
50 μl/well MTT of 1 mg/ml in RPMI-1640 was added to the cell pellet and the cells re-suspended by shaking for 2 minutes. The incubation was continued for 4 hours. The supernatant was discarded after centrifugation at 150 g for 10 minutes. 120 μl 40 mM HCl-2-propanol was added to the cell pellet and shaken for 3 minutes. to obtain OD570nm of each well referenced at 630 nm. An ELISA reader was used
Each mouse formed three assay wells and three control wells. The Stimulation Index (SI) of each mouse was obtained by first deriving the average OD of the three parallel wells, then dividing the value of the assay wells by the control wells.

mononuclear phagocyte = test: phagocytosis index in mice with transplanted S180 sarcoma; assay type: in vivo, BALB/c mice; details: 3 × 10^5 IU/kg i.p. once per day
Procedure: (§1) Intraperitoneal injection, once per day. […] Treatment of all groups with testing substance lasted for 30 days or until the animal died unless otherwise specified.
Stock S180 sarcoma cells were incubated in DMEM/F12 medium supplemented with 10% fetal bovine serum, 37° C., 5% CO2 for 72 hrs, then washed 3-4 times with Hank's solution at room temperature. Adjust the cell concentration to 1-2×10^9 per liter with Hank's solution. […] The mice were killed by cervical vertebra dislocation. Vigorously growing and non-disrupted tumor masses were harvested and washed clean with sterile saline. The tissue was dispersed in saline to a homogenous cell suspension, in a ratio of 1 g tissue to 4 ml saline. The sarcoma bearing mice model was prepared with an injection of 0.2 ml cell suspension through the armpit. Administration of test substance treatment started as described in section Method 1.
2.1 The effect of peptides on the phagocytotic function of mononuclear phagocyte in mice with S180 sarcoma was analyzed by injecting mice from the tail vein with 0.1 ml/10 g body weight of Indian ink (1:5 dilution with normal saline) on the second day after the last test substance administration. […] The outline clear index K was calculated by the following formula: K=(lgA1−lgA2)÷(t2−t1) […]
1. The Phagocytosis Index α was Calculated as Below: α=(^3√K)×(W÷WLS)

anti-SRBC antibody = test: humoral immunity (SRBC hemolysis index) of mice bearing transplanted B16 melanoma; assay type: in vivo, C57BL/6 mice; set-up: key: index = (OD540 of test sample ÷ reference OD540) × 500; details: 3 × 10^5 IU/kg i.p. once per day
Procedure: as §1
Stock B16 mouse melanoma cells were incubated in DMEM/F12 medium supplemented with 10% fetal bovine serum, 37° C./5% CO2 for 72 hrs, then washed 3-4 times with Hank's solution. The cell concentration was adjusted to 1×10^5 per ml with Hank's solution and 0.1 ml of the cell suspension was injected via the tail vein into the testing mice to generate the B16 melanoma bearing animal model. Treatment with test substance started as described in section Method 1.
Sheep red blood cells (SRBC) were prepared by collecting blood from the cervical vein and put into a sterile flask with glass beads. The flask was shaken for 3 minutes and the blood then mixed with Alsever solution (glucose 2.05 g, NaCl 0.4 g, […] 0.8 g, adjust to 100 ml with distilled water) and stored at 4° C. Immediately before use, samples were centrifuged at 130 g, 5 minutes to collect the SRBC. The cells were washed two times by re-suspension and centrifugation in normal saline. […]
Reference OD540nm was obtained by mixing 0.25 ml SRBC suspension with Drabkin solution to 4 ml and placed at room temperature for 10 minutes before OD540nm was taken. […] The Pathological Changes were Recorded, and the Numbers of Melanoma Lung Metastasis Foci were Counted. […]

How did the “stimulation index (T lymphocyte transformation)” value (“stimulation index” below) (T lymphocyte; peptide 0.5 μg/kg/day i.p. 15 days) turn out when “IL-2: recombinant human interleukin-2, Shanghai Huaxin Biotech Inc.; positive control immunostimulant” was run?
The value was 1.6 ± 0.1.

What about the “stimulation index” value (T lymphocyte; peptide 5 μg/kg/day i.p. 15 days) of the same substance?
Its value is 1.6 ± 0.1.

What about the “stimulation index” value (T lymphocyte; peptide 50 μg/kg/day i.p. 15 days) of the same substance?
Its value is 1.8 ± 0.2.

What about the “stimulation index” value (T lymphocyte; peptide 500 μg/kg/day i.p. 15 days) of the same substance?
Its value is 1.7 ± 0.2.

And the Phagocytosis index (mononuclear phagocyte)?
Its Phagocytosis index is 6.96 ± 1.37.

What about the Hemolysis index (anti-SRBC antibody) of the same substance?
The Hemolysis index was 49.3 ± 24.7.

Source: US7718768B2, “Biologically active peptide [sequence]” (CMS Peptides Patent Holding Company Limited, priority 2001, dated 2010)
